The source of these data is PubChem BioAssay AID1321 (The Scripps Research Institute Molecular Screening Center, 2008).

Protein sequences, listed by entry. Tags and fused reporters are not part of them.
UniProt P30291, whole entry K328M: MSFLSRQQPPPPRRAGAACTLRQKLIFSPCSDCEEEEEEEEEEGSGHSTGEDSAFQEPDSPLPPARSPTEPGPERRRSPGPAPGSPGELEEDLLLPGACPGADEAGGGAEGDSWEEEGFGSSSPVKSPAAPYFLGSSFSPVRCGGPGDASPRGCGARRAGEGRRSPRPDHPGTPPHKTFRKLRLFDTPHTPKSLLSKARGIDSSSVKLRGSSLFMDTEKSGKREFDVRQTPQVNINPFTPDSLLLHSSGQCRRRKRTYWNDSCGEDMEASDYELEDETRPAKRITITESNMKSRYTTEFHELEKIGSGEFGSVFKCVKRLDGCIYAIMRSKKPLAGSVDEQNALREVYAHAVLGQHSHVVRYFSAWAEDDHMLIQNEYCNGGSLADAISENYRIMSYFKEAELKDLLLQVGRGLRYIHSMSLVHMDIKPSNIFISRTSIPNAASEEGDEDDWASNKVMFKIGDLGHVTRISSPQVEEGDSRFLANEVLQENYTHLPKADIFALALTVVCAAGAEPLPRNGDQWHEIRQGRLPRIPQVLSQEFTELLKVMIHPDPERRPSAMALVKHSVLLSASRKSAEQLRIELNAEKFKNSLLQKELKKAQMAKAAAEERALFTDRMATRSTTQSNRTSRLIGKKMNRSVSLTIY

The list shows a part of the results, in another mix than the full data. The source made the active and inactive calls.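 Rule for the calls: active = activation above the mean of all tested compounds plus 3 SD, set per screening run (cut at about 8.8% in these data); inactive = the rest.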

This assay has as its target Wee1-like protein kinase (Homo sapiens) (UniProt P30291). The assay is described as follows: compounds stabilizing Wee1-luciferase fusion – cell-based, HeLa, Wee1K328M-luciferase, luminescence, primary screen (AID 1321).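 Note: cells exposed to compound for 20 h before luminescence read; 0% = DMSO alone and 100% = MG132 at 30 µM.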 To be noted: HeLa Luc-Wee1K328M stability, at 5 µM, stronger effect = higher value, 100% = proteasome inhibitor MG132 effect.
For the molecule `CCOc1ccc(C)cc1CN(CCCl)CCCl`, the reporter increase is inactive: -2.96%.

With `COc1ccc(NC2CCN(CCc3ccccc3)CC2)c(OC)c1`, the reporter increase was inactive: -1.93%.

As to `Cc1ccc(OCC(C)C)c(CN(CCCl)CCCl)c1`, the reporter increase was inactive: -1.11%.

On to `COc1ccc(C(=O)NCC2(N3CCCCC3)CCCCC2)c(OC)c1OC`, for which the reporter increase was inactive: 1.11%.

For `O=C(NCC1(N2CCOCC2)CCCCC1)c1cc2ccccc2o1`, the reporter increase is inactive: -1.05%.

`CCOC(=O)N1CCC(Nc2ccc(OC)cc2)CC1`: the reporter increase is inactive: -2.86%.

On to `N#CC1(Nc2ccccc2)CCN(Cc2ccccc2)CC1`, for which the reporter increase is inactive: 2.2%.

As to `O=C(OC1CN2CCC1CC2)C1c2ccccc2Oc2ccccc21` (centres undefined), the reporter increase is inactive: 2.78%.

With `CN(C)c1cccc(C(=O)NCC2(N3CCCCC3)CCCCC2)c1`, the reporter increase is inactive: -3.94%.

`COc1ccc(CN(CCCl)CCCl)cc1Cl`: the reporter increase was inactive: 0.51%.

For the molecule `CC(C)c1ccc(NC2CCN(C(=O)OC(C)(C)C)CC2)cc1`, the reporter increase is inactive: 0.34%.

Turning to `CN1CCC(Nc2cccc(F)c2)CC1`, the reporter increase was inactive: 2.09%.

As for `O=C(NCC1(N2CCCCC2)CCCCC1)c1cccc([N+](=O)[O-])c1`, the reporter increase was inactive: -2.89%.

Regarding `N#CC1(Nc2ccccc2)CCN(CCc2ccccc2)CC1`, the reporter increase was inactive: -0.38%.

As to `CN1CCN(CCOC(=O)C(O)(c2ccccc2)c2ccccc2)CC1`, the reporter increase is inactive: -2.45%.

Regarding `COc1ccc(NC2CCN(C(=O)OC(C)(C)C)CC2)cc1`, the reporter increase was inactive: -0.38%.

Regarding `O=C(NCC1(N2CCOCC2)CCCCC1)c1cc(=O)[nH]c2ccccc12`, the reporter increase is inactive: 0.22%.

As to `N#Cc1ccc(C(=O)NCC2(N3CCCCC3)CCCCC2)cc1`, the reporter increase is inactive: 1.28%.

Consider `c1ccc(CN2CCC(Nc3ccccc3)CC2)cc1`, for which the reporter increase was inactive: -0.32%.

Take `COc1ccc(C(=O)NCC2(N3CCOCC3)CCCCC2)cc1OC`: the reporter increase was inactive: 0%.

As to `N/C(=N\O)c1c(N)no[n+]1[O-]`, the reporter increase is inactive: -0.29%.

Take `O=C(OC1CN2CCC1CC2)C1c2ccccc2C=Cc2ccccc21` (centres undefined): the reporter increase was inactive: -2.12%.

`CCOc1ncccc1C(=O)NCC1(N2CCOCC2)CCCCC1`: the reporter increase was inactive: -2.15%.

In the case of `CC(C)(C)OC(=O)N1CCC(Nc2ccccc2)CC1`, the reporter increase was inactive: 5.77%.

Turning to `CCC(CO)(C(=O)OC1CN2CCC1CC2)c1ccccc1` (centres undefined), the reporter increase was inactive: -0.69%.

Take `COc1cc(OC)cc(C(=O)NCC2(N3CCOCC3)CCCCC2)c1`: the reporter increase is inactive: 0.33%.

Turning to `CCCOc1ccc(C)cc1CN(CCCl)CCCl`, the reporter increase is inactive: -2.62%.

With `CCN1CCC(Nc2cccc(F)c2)CC1`, the reporter increase was inactive: -1.64%.

For `CN(C)c1ccc(C(=O)NCC2(N3CCCCC3)CCCCC2)cc1`, the reporter increase was inactive: -2.01%.
